## AlphaSeq binding of Ab-14 light chain variants to a spike HR2 peptide

All variants were tested on one target, the spike HR2 peptide PDVDLGDISGINAS (SARS-CoV-2).

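The parent was found by panning a naive human phage display library on the peptide. This is the validation round: designs drawn from the data on random variants, tested in the same kind of assay. Their group label is 14L_En_HC (En: ensemble of fine-tuned language models; HC: hill climbing; a sequence that several methods proposed may carry one label only). In AlphaSeq, yeast of one mating type display the scFv and yeast of the other type display the target. Binding brings cells together so that they mate, and sequencing counts the barcode pairs among the diploids. The ratio of observed to expected reads was calibrated, replicate by replicate, on BCL2-family standards whose Kd was known from biolayer interferometry. The assay was run in six technical replicates.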

Parent scFv Ab-14: VH joined to VL by a (GGGGS)3 linker. Changes lie in the light chain CDRs alone.
VH: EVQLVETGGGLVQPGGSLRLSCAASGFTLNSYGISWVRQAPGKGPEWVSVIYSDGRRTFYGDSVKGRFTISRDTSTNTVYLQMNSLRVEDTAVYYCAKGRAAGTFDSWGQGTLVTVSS
VL: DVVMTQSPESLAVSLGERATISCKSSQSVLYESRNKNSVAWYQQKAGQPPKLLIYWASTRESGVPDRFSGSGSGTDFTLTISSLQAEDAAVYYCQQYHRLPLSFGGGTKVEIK

Variants are written as CDR1, CDR2 and CDR3 of the light chain (limits as in the source). Parent: KSSQSVLYESRNKNSVA, WASTRES, QQYHRLPLS.
Affinities are written as log10 Kd with Kd in nM; a lower number is a better binder.
The mean shown is taken over the replicates in which the pair was detected.
"n.d." means that the variant was in the library but no mating with the target was seen in that replicate; the authors take this as a sign of poor binding, and no number exists.

| CDR-L1 | CDR-L2 | CDR-L3 | log10 Kd, replicates | mean, log10 nM | empty controls |
|---|---|---|---|---|---|
| KLRQVSEYESFNKNSVA | QTETREN | QDYDRLPLS | n.d. n.d. n.d. n.d. n.d. n.d. | n.d. | 0 of 18 |
| KLSMSMLMESRHKNSVA | ENSTREE | QHYNRLPLS | n.d. n.d. n.d. n.d. n.d. n.d. | n.d. | 0 of 18 |
| KIGGVTNGISRSKNNVA | EQSTRED | QQYDRLPLS | -0.01 -0.09 0.27 0.85 -0.08 0.53 | 0.25 | 0 of 18 |
| TLTDSVLMESHNKNSVA | DLSTRGS | QQYHRLPLS | -0.03 -0.16 -0.37 -0.51 -0.49 -0.25 | -0.30 | 4 of 18 (2.42) |
| KISQMSTIESITHNSVA | QTSKRES | QQYDRLPLS | 1.23 0.71 0.92 0.72 0.83 1.56 | 0.99 | 1 of 18 (1.83) |
| SITQLVGWGSRNKNSVA | QMETREN | QQYDRLPLS | 0.45 0.35 0.45 0.38 0.43 0.47 | 0.42 | 0 of 18 |
| TISQSALMTGLNRNSVA | QAEERLE | QQYNRLPLS | 0.87 0.41 0.78 0.78 0.87 0.89 | 0.77 | 0 of 18 |
| ILSQMMLMAGNKHSSVA | QANNRND | QQYHRLPLS | n.d. n.d. n.d. n.d. 2.22 2.39 | 2.31 | 1 of 18 (1.97) |
| KISGMYQKESKNKNNVA | EMVNRES | QQYDRLPLS | 0.49 0.25 0.42 0.02 0.49 0.32 | 0.33 | 0 of 18 |
| KIGHGLTTEMYNRNSVA | QTETRVP | QHYHRLPLS | 2.42 1.96 2.41 2.29 2.33 2.24 | 2.28 | 1 of 18 (2.50) |
| NVGQLMDGATRNKNSVA | HQSTRED | QHYHRLPLS | 1.73 1.34 0.85 1.07 1.23 1.31 | 1.26 | 1 of 18 (3.39) |
| KLSQATRMESRNKASVA | ENSTRES | QQYFRLPLS | 1.05 0.47 0.72 0.49 1.38 1.37 | 0.91 | 2 of 18 (3.14) |
| MMSMGYLQGMRAKNNVA | QEETRES | QQYHRLPLI | 0.82 0.83 1.90 0.83 0.85 1.16 | 1.07 | 1 of 18 (1.32) |
| TISQSAQTESHNKNSVA | DLSVRGS | QQYDRLPLS | 1.23 0.45 0.53 0.75 0.85 1.02 | 0.81 | 0 of 18 |
| HISQMVMYGSCNKNNVA | QVSLRME | QQYHRLPLS | n.d. 2.26 2.39 n.d. 2.99 1.95 | 2.40 | 0 of 18 |
| KISYMGEYFSTNHSAIA | QASTREQ | QQYHRLPLS | 0.72 0.69 0.97 0.61 0.72 0.92 | 0.77 | 2 of 18 (2.02) |
| KVSEMSAFLSSNRNSVA | DNSTRGS | QQYHRLPLS | 1.07 1.17 1.07 1.35 1.59 1.09 | 1.22 | 2 of 18 (2.41) |
| NVGQLMDGEMRNKNSVA | HQSTRED | QHYHRLPLS | 0.00 0.35 0.15 0.30 0.02 0.34 | 0.19 | 0 of 18 |
| KLGSSVAMTSRMKNNVA | DLNERER | QQYHRLPLS | 0.19 0.14 0.22 0.23 0.17 0.22 | 0.20 | 0 of 18 |
| KISMLYNYASTNKNSIA | EMTTREA | QHYHRLPLS | 1.39 1.17 0.88 1.38 1.09 1.64 | 1.26 | 0 of 18 |
| TLSDLMYMESRNVNNVA | DLVKRES | QQYHRLPLS | 1.09 1.92 1.03 0.60 1.23 0.75 | 1.10 | 1 of 18 (3.27) |
| KISMLVNFLGKNKNSVA | QMSTREE | QQYDRLPLS | 0.41 0.69 0.74 0.40 0.84 0.76 | 0.64 | 1 of 18 (1.55) |
| MIAQGLRGVGRNKNSVA | NAQTRVS | QHYHRLPLS | n.d. n.d. n.d. n.d. 1.90 n.d. | 1.90 | 0 of 18 |
| KISMSYRYESQEKNNIA | EMSTREE | QSYHRLPLS | 0.86 0.45 0.11 0.91 0.63 0.70 | 0.61 | 0 of 18 |
| KLYISTMLESHNKNSIA | DLSTRGN | QQYHRLPLS | 1.57 0.45 0.44 0.33 0.38 0.34 | 0.58 | 0 of 18 |
| LISSVWDYGSRNYNSVA | QTSTREQ | QQYDRLPLE | 1.07 n.d. 1.54 0.36 1.16 0.88 | 1.00 | 1 of 18 (1.44) |
| TISTSALYESTNKNSVA | ELTTRGS | QQYERLPLS | 0.94 n.d. n.d. n.d. n.d. 1.62 | 1.28 | 0 of 18 |
| TISTSANYESTNKNSVA | ELSTRGS | QQYERLPLS | 0.94 0.91 0.50 0.69 0.58 0.56 | 0.70 | 3 of 18 (2.19) |
| KLSQSVNMTGKNKNSVA | ELSFRED | QQYERLPLS | 1.13 1.18 1.21 1.43 1.06 1.15 | 1.19 | 1 of 18 (2.14) |
| KCSQNVLIMGRNKNNVA | EMTTREE | QQYDHLPLS | 0.31 0.29 0.07 0.01 0.13 0.36 | 0.20 | 1 of 18 (2.45) |
| TISESWMYESRNKNNVA | EESTKLD | QSYFRLPLS | 0.74 1.09 0.32 0.70 0.47 1.02 | 0.72 | 2 of 18 (1.66) |
| ALSQSMDMTSRMKNSVA | DLSTREN | QQYHRLPLS | -0.05 0.01 -0.33 -0.51 -0.17 0.14 | -0.15 | 0 of 18 |
| HLTDTVMQGSYYKNSVA | QESTRAD | QQYHRLPLS | 0.62 0.02 0.00 0.22 0.04 -0.03 | 0.15 | 1 of 18 (1.19) |

For reference, 2 entries of the list once more:

| CDR-L1 | CDR-L2 | CDR-L3 | log10 Kd, replicates | mean, log10 nM | empty controls |
|---|---|---|---|---|---|
| KLGSSVAMTSRMKNNVA | DLNERER | QQYHRLPLS | 0.19 0.14 0.22 0.23 0.17 0.22 | 0.20 | 0 of 18 |
| TLSDLMYMESRNVNNVA | DLVKRES | QQYHRLPLS | 1.09 1.92 1.03 0.60 1.23 0.75 | 1.10 | 1 of 18 (3.27) |

A sequence measured in both rounds can read differently, since the two assays cover different ranges.
The parent sequence was in this pool as ten entries: three were never detected, three once, and four in most replicates, with averages from 0.34 to 2.37.
In the paper, a design with two or fewer of six values counts as a poor binder.
Nonspecific signal, from three strains lacking the peptide, appeared in 4% of pairings of all light chain designs, centred on 2.64 (5% of these signals below 1.59); values are not corrected for it. The control count says in how many pairings with the empty strains this scFv gave a signal, with their mean in brackets.

Reference: Li et al. 2023, doi:10.1038/s41467-023-39022-2. File: FLAb, binding data.